# According to ChEMBL document CHEMBL3102716, “High-throughput virtual screening identifies novel N'-(1-phenylethylidene)-benzohydrazides as potent, specific, and reversible LSD1 inhibitors” (J Med Chem, 2013):
# Key:
# [1] = test system: PC-3; type: functional, cell-based; conditions: Homo sapiens, PC-3, 96 h
# [2] = test system: MDA-MB-231; type: functional, cell-based; conditions: Homo sapiens, MDA-MB-231, 96 h
smiles,measurement,setting,value
C/C(=N\NC(=O)c1cccc(S(=O)(=O)N2CCOCC2)c1)c1cc(Cl)ccc1O,IC50,[1],2.16 µM
same,IC50,[2],1.04 µM
